Earlier results on one compound are cited in patent US7361766B2, “Bicyclic heterocycles as cannabinoid receptor modulators” (Bristol-Myers Squibb Company, priority 2005, dated 2008).

The conditions of this data set: chronic administration for two weeks.

Turning to `Cc1c(C(=O)NN2CCCCC2)nn(-c2ccc(Cl)cc2Cl)c1-c1ccc(I)cc1` [AM-251], the adipose tissue mass result is given as “decreased adipose tissue mass”.
